The text below walks through data of patent US20190145953A1, “METHODS AND MATERIALS FOR ASSESSING INTESTINAL PERMEABILITY” (Mayo Foundation for Medical Education and Research, priority 2016, published 2019).

One data set concerns duodenum biopsies. The data set is described as follows: Ussing chamber flux across duodenal mucosal biopsies. Also noted: species or system human. The protocol:
(§1) The following was performed to determine duodenal and colonic barrier function and endotoxin activity in females with IBS-C in comparison to healthy. 16 IBS-C (Rome III) patients and 13 matched healthy volunteers (females) were given oral lactulose, ^12C mannitol and ^13C mannitol measured cumulatively over 0-2 and 8-24 hours by HPLC-MS. 10 biopsies were obtained from duodenum and sigmoid colon. Mucosal transepithelial resistance (TER), FITC dextran (4 KDa), and E. coli K12 BioParticle flux were measured in Ussing chambers. Endotoxin activity (blood) was measured towards gram-negative bacterial lipopolysaccharide. Unpaired 2-sided t-tests were used for comparisons.

For the next data set, the system named is sigmoid colon biopsies. Nature of the data set: Ussing chamber flux across sigmoid colon mucosal biopsies. Also noted: species or system human. On the procedure:
as §1

In the case of FITC-dextran, the entries for the “3 hr FITC-dextran flux (ng/ml), mean (SEM)” value in the data set on duodenum biopsies (Healthy Volunteers (n=13)) and in the data set with duodenum biopsies (IBS-C (n=15)) were 181.6(49.25) ng/ml and 169.3(37.06) ng/ml, respectively. Also, the “3 hrs FITC-dextran flux (ng/ml), mean (SEM)” value in the data set with sigmoid colon biopsies (Healthy Volunteers (n=12)) is on record as 321.7(153.9) ng/ml; with sigmoid colon biopsies (IBS-C (n=12)), 150.9(33.79) ng/ml.
